For one assay, the target named is T1, ETB receptor (Sus scrofa, UniProt P35463).
T1 sequence (P35463 27-443): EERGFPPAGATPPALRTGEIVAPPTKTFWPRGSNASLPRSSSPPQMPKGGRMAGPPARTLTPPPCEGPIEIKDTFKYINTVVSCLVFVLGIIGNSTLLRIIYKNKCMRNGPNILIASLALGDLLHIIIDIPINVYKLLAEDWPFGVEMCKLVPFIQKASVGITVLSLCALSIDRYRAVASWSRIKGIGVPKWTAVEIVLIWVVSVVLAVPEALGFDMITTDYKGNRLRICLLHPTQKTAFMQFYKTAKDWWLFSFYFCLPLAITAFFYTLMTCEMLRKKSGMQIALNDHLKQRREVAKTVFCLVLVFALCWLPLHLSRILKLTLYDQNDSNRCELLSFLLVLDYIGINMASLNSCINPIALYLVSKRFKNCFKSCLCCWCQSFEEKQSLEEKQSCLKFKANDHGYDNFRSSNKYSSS
The assay is described as follows: Inhibition of [125I]ET-3 binding to porcine lung membranes. The note with it: against 10 pM [125I]ET-3, porcine lung membrane, 37°C, 1 h.

Another assay has as its target T2, ETA receptor (Sus scrofa, UniProt Q29010).
T2 sequence (Q29010 21-427): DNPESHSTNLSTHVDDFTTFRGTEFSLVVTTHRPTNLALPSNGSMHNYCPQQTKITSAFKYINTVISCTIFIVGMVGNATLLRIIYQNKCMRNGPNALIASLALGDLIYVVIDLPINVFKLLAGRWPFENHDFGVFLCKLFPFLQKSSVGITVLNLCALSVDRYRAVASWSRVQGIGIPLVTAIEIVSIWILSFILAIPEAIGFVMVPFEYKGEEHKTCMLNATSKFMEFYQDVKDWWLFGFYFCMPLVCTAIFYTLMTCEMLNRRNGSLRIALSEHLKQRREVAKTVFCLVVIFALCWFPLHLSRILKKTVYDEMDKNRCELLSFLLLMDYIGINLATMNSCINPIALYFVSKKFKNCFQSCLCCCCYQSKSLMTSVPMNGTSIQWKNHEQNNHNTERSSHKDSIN
The note with it: against 30 pM [125I]ET-1 with 1 nM unlabeled ET-3, porcine lung membrane, 37°C, 1 h.

Data on one compound can be found in patent publication EP0548441A1, “Endothelin antagonists” (Japat Ltd, priority 1991, dated 1993).

By Ki is commonly meant the dissociation constant of the complex between target and ligand, obtained from inhibition or displacement. Lower therefore signals higher affinity.

Molecules are shown by their SMILES.

As to `CC[C@H](C)[C@H](NC(=O)[C@H](CC(=O)O)NC(=O)[C@H](CC(C)C)NC(=O)[C@H](Cc1c[nH]cn1)NC(=O)[C@@H]1CSSC[C@H](N)C(=O)N[C@@H]([C@@H](C)O)C(=O)N[C@H]2CSSC[C@H](NC(=O)[C@H](CCC(=O)O)NC(=O)[C@H](CCCCN)NC(=O)[C@H](CC(=O)O)NC(=O)[C@H](CCCCN)NC(=O)[C@H](Cc3ccc(O)cc3)NC(=O)[C@H]([C@@H](C)O)NC(=O)[C@H](Cc3ccccc3)NC2=O)C(=O)N[C@@H](C(C)C)C(=O)N[C@@H](Cc2ccc(O)cc2)C(=O)N[C@@H](Cc2ccc(O)cc2)C(=O)N1)C(=O)N[C@H](C(=O)N[C@@H](Cc1c[nH]c2ccccc12)C(=O)O)[C@@H](C)CC` [ET-3, endothelin-3], the inhibitory constant (Ki) at ETB receptor is 0.008 nM; at ETA receptor it was 15 nM.
